The numbers were not newly measured in publication PMC3591448, “Profile of the GSK Published Protein Kinase Inhibitor Set Across ATP-Dependent and-Independent Luciferases: Implications for Reporter-Gene Assays” (PLoS ONE, 2013), which cites them from elsewhere.

Some results are limits rather than exact numbers.

In the series the test system is GSK3α. Also on record: method as in Witherington, J., et al. 2003. The note with it: ref Witherington, J., et al. 2003; read-out: PKI IC50 (µM), GSK3α; cited from earlier work.

As for `COc1ccc(-c2ccc3c(NC(=O)C4CC4)n[nH]c3n2)cc1` [SB-711237], the IC50 was more than 5 µM.
